Experimental data taken from BindingDB's records for 17539825 (Chemdiv, 2007).

Protein sequences, listed by entry. Tags and fused reporters are not part of them. Residues count along the entry.
UniProt P17948, 27-1338 limits assumed: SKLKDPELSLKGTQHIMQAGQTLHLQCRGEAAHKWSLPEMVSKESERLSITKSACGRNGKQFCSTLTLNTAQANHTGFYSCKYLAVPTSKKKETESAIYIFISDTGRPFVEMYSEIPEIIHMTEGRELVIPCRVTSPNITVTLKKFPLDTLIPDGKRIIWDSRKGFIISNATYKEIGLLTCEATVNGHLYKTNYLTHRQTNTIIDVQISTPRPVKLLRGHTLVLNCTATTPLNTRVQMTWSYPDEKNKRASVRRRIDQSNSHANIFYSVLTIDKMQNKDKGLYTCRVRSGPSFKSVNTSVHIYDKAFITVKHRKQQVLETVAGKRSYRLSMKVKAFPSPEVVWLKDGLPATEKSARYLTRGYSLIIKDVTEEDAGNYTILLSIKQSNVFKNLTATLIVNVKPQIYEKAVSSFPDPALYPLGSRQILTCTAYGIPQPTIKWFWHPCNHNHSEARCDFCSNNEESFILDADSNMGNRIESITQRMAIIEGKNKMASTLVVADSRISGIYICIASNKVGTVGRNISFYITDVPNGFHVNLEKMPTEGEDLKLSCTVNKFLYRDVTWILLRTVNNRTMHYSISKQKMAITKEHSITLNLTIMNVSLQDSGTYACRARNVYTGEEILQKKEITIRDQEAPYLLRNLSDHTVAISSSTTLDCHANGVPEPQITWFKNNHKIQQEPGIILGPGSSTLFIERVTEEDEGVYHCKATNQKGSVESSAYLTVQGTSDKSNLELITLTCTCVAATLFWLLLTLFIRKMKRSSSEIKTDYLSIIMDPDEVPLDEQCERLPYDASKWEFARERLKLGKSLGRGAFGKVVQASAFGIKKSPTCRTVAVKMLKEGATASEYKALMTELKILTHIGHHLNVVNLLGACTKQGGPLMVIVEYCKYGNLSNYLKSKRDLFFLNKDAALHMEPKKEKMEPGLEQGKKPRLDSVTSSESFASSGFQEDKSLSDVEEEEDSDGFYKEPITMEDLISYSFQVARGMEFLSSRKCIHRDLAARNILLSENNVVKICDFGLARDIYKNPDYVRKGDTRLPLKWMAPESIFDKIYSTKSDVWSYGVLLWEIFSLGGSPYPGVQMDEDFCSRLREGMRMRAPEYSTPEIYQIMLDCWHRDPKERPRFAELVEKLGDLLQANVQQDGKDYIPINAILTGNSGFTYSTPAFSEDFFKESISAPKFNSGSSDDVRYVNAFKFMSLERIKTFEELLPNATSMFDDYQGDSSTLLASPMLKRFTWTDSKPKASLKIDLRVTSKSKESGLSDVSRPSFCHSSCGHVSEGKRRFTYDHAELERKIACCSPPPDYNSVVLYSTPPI
UniProt P35968, 20-1356 limits assumed: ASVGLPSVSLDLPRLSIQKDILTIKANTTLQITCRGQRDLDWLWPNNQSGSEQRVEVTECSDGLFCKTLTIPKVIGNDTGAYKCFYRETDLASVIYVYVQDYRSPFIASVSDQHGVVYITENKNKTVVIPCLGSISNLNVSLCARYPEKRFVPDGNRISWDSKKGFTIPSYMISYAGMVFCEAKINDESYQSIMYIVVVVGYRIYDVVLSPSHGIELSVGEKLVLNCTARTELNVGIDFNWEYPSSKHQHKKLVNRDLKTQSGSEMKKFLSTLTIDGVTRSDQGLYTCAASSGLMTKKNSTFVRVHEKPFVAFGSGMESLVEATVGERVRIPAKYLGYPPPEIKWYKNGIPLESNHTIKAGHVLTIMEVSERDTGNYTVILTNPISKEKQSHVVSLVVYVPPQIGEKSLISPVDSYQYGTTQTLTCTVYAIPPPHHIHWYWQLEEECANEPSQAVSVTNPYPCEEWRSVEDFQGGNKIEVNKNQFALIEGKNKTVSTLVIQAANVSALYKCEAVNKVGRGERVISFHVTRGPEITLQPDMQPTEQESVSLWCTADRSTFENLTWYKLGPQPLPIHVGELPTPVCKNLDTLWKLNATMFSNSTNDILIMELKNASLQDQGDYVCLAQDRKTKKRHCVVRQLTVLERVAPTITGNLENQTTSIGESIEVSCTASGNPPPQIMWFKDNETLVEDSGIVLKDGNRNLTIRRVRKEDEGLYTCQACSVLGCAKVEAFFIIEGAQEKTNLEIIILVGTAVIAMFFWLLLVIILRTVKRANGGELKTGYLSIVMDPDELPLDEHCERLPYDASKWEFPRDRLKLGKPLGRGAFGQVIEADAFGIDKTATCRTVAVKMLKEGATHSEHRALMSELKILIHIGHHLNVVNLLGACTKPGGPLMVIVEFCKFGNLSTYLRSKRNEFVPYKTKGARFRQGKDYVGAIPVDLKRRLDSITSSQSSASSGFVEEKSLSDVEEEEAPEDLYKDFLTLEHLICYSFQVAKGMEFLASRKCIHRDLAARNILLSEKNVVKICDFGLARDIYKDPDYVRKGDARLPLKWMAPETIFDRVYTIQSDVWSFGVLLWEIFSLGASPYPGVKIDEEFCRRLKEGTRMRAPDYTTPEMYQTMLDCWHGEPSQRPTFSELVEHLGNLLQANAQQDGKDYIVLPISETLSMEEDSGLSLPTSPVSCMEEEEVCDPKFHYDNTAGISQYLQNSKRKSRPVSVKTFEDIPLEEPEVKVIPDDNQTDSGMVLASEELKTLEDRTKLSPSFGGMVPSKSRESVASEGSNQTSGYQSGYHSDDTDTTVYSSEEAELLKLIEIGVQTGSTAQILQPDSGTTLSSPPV

Key:
[1] = molecular target: Vascular endothelial growth factor receptor 1 (Homo sapiens, UniProt P17948); details: pH 7.5
[2] = molecular target: Vascular endothelial growth factor receptor 2 (Homo sapiens, UniProt P35968); details: pH 7.5

## O=P(O)(O)OP(=O)(O)n1cnc(-c2ccccc2Nc2ccncc2)n1
[1]
  IC50: 940 nM
[2]
  IC50: 780 nM
